In ChEMBL document CHEMBL3860065, “Synthesis and biological evaluation of azole-diphenylpyrimidine derivatives (AzDPPYs) as potent T790M mutant form of epidermal growth factor receptor inhibitors” (Bioorg Med Chem, 2016) one finds IC50 data, which are given here for one compound.

Protein sequences, listed by entry. Tags and fused reporters are not part of them. Residues count along the entry.
UniProt P00533, 25-1210 T790M/L858R limits assumed: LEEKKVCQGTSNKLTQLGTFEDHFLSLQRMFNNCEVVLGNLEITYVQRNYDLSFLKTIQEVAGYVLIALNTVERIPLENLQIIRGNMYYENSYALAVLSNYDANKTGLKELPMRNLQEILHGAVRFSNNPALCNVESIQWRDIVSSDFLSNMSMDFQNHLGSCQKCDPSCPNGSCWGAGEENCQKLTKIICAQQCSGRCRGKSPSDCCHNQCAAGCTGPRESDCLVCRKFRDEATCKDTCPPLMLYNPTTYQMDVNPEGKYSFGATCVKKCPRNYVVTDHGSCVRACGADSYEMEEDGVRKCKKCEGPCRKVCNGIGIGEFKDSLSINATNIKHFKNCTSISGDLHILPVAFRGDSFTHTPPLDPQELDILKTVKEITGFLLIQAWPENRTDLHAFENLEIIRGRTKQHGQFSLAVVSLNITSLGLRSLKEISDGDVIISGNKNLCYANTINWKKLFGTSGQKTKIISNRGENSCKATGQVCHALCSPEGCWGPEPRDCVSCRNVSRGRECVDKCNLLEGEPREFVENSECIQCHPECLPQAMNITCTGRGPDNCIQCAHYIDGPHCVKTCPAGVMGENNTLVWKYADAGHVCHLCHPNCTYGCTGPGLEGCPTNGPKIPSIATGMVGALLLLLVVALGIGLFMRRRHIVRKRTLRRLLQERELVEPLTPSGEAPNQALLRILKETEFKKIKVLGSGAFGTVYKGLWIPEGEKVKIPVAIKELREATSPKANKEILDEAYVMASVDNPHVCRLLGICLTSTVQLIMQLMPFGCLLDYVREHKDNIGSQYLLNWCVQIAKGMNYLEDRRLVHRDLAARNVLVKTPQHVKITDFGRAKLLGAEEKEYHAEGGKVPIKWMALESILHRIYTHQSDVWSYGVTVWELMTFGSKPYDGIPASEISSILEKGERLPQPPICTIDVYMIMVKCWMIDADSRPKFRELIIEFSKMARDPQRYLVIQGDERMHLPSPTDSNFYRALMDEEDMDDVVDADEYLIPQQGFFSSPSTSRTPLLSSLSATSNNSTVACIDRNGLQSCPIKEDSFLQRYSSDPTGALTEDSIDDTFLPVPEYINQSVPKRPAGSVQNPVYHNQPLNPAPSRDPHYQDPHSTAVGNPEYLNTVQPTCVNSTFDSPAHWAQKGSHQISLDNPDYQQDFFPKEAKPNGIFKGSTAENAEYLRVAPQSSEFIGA

The pIC50 is the negative decadic logarithm of the IC50, by convention in mol/L. Lower therefore signals a high IC50.

The target of this assay is Epidermal growth factor receptor (Homo sapiens, UniProt P00533, L858R/T790M). The assay is described as follows: biochemical. The format is cell-based, Sf9.

pIC50: −log10 of the molar value.

As to `C=CC(=O)Nc1cccc(Nc2nc(Nc3ccc(NC(=O)Cn4ccnc4)cc3)ncc2[N+](=O)[O-])c1`, the pIC50 was 6.93.
